Entries after “also recorded” stand apart in the source; their conditions may differ.
Key:
[1] = FLX plasma levels at the drinking-water dose used; assay type: in vivo, mice; details: FLX 155 mg/L drinking water, ~20 mg/kg/d
[2] = test system: brain tissue 5-HT; test: Tissue 5-HT and 5-HIAA analysis (HPLC-EC) in frontal cortex and hippocampus; assay type: in vivo; details: 5-HTP in drinking water 4 mg/ml≈320 mg/kg/day, no carbidopa, 5-HT deficient Tph2KI (R439H) mice

| FLX plasma levels relative to the clinical [1] [× the clinical] | Compound | brain/tissue 5-HT level [2] |
| --- | --- | --- |
| ~10 | CNCCC(Oc1ccc(C(F)(F)F)cc1)c1ccccc1 (centres unmarked) [FLX, fluoxetine] |  |
|  | N[C@@H](Cc1c[nH]c2ccc(O)cc12)C(=O)O [5-HTP, 5-hydroxytryptophan] | robustly restored brain 5-HT; also recorded: restores tissue 5-HT levels; also recorded: restores brain 5-HT |

Reference: patent US9468627B2, “Slow-release formulations of 5-hydroxytryptophan as an adjunct to pro-serotonergic therapies” (Duke University, priority 2010, dated 2016)
